In PMC6332427, “Drug Discovery of Host CLK1 Inhibitors for Influenza Treatment” (Molecules, 2015):

Columns and labels:
[1] = tested on: influenza virus A/PR/8/34 (H1N1); test: in vitro
MDCK cells = test: Cytotoxicity assay in MDCK cells (MTT, 72 h); settings: more than 90% cells viable
[2] = Pre-Treatment Assay SI (selective index, CC50/EC50)
[3] = Simultaneous Treatment Assay SI (selective index, CC50/EC50)

O=C(O[C@@H]1Cc2c(O)cc(O)cc2O[C@@H]1c1cc(O)c(O)c(O)c1)c1cc(O)c(O)c(O)c1 [J14080, Epigallocatechin gallate]
selectivity ratio [1, 2]: 6.98 | selectivity ratio [1, 3]: 4.78

NC(=O)c1ncn([C@@H]2O[C@H](CO)[C@@H](O)[C@H]2O)n1 [Ribavirin, reference compound]
CC0 (maximal non-cytotoxic concentration) (MDCK cells): 100 µg/mL | selectivity ratio ([1]; Post-Treatment Assay SI (selective index, CC50/EC50)): > 14.5 | selectivity ratio [1, 2]: > 45.9 | selectivity ratio [1, 3]: > 19.4
